Read-outs that look alike come from different tables or passages of the source.
Legend:
AChE from electric eel = AChE from electric eel (Electrophorus electricus, UniProt O42275); experiment: Ellman assay, in vitro inhibition of acetylcholinesterase
AChE [1] = conditions: cited from earlier work
AChE [2] = target: AChE (Electrophorus electricus, UniProt O42275); experiment: Kinetics of AChE inhibition (Lineweaver-Burk); conditions: read-out: Ki (mM), enzyme-inhibitor dissociation constant; x-axis intercept of slope of Lineweaver-Burk line versus peptide concentration
[3] = read-out: IC50 (μg/mL), Ellman assay, ATCI 2.5 mM, 0.1 M phosphate buffer pH 7.4, 37 °C, mean ± SD, n = 3

Chains of the proteins cited; added tags and fusions are not shown. Residues count along the entry.
UniProt O42275, 24-633 limits assumed: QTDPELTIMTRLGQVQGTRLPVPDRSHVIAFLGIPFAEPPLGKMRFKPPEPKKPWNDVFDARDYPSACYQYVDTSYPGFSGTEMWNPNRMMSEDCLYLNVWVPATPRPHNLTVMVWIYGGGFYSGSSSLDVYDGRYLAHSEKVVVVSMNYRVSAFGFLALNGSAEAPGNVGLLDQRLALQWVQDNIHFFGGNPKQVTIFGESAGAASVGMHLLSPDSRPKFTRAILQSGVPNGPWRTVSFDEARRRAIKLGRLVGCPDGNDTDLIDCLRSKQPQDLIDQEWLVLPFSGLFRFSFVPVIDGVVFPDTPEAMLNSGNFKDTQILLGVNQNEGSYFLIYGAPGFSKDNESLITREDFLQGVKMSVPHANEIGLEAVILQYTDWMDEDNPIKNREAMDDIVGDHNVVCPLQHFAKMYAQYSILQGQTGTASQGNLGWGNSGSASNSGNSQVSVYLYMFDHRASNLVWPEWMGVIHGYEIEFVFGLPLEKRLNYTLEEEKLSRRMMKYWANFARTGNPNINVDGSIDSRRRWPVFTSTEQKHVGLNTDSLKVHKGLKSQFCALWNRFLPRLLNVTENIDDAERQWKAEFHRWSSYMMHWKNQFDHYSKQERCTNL

Compound	IC50 (AChE from electric eel; [3]) [µM]	IC50 (AChE from electric eel; same IC50 expressed in μM) [µM]	AChE-inhibitory IC50 (AChE [1]) [µg/mL]	Ki (AChE [2]) [mM]	cholinesterase inhibition IC50 (AChE [1]) [µg/mL]
CC(C)[C@H](N)C(=O)N[C@@H](CC(N)=O)C(=O)N[C@@H](CCCNC(=N)N)C(=O)N1CCC[C@H]1C(=O)NCC(=O)N[C@@H](CCCCN)C(=O)O	2.4	2.87			
CC[C@H](C)[C@H](NC(=O)[C@H](C)NC(=O)[C@@H](NC(=O)[C@@H]1CCCN1C(=O)[C@@H](N)Cc1c[nH]cn1)C(C)C)C(=O)N[C@@H](CC(N)=O)C(=O)N[C@@H](C)C(=O)O	2.29	2.77			
Snakin-Z			580		
NC(=O)CC[C@H](NC(=O)[C@H](CO)NC(=O)[C@H](CCC(N)=O)NC(=O)[C@@H](N)CO)C(=O)O	3.52				
C[C@@H](O)[C@H](N)C(=O)N[C@@H](CCCNC(=N)N)C(=O)N[C@@H](CO)C(=O)N[C@@H](CCC(N)=O)C(=O)N[C@@H](CCC(=O)O)C(=O)O	2.58	3			
CC(C)C[C@H](N)C(=O)N[C@@H](CCCCN)C(=O)N[C@@H](CO)C(=O)N[C@@H](CC(N)=O)C(=O)N[C@@H](CC(=O)O)C(=O)N[C@@H](CCCNC(=N)N)C(=O)O	2.2	2.58			
CC(C)C[C@H](NC(=O)[C@H](C)NC(=O)[C@H](CC(N)=O)NC(=O)[C@H](Cc1c[nH]cn1)NC(=O)[C@@H](N)CCC(N)=O)C(=O)O	2.79	3.29			
C[C@H](NC(=O)[C@H](Cc1ccccc1)NC(=O)[C@H](Cc1c[nH]cn1)NC(=O)[C@H](CO)NC(=O)[C@@H](N)CCC(N)=O)C(=O)N[C@@H](CC(=O)O)C(=O)O	2.3	2.71			
C[C@@H](O)[C@H](NC(=O)[C@@H](N)CCC(=O)O)C(=O)N[C@@H](CCCNC(=N)N)C(=O)N[C@@H](CO)C(=O)N[C@@H](CCC(N)=O)C(=O)O	2.53	2.96		0.06	
CC(C)[C@H](NC(=O)[C@@H](N)CCC(N)=O)C(=O)N[C@@H](Cc1ccccc1)C(=O)N[C@@H](CCCNC(=N)N)C(=O)N[C@@H](C)C(=O)N[C@H](C(=O)O)[C@@H](C)O	2.25	2.64			
C[C@@H]1O[C@@H](OC[C@H]2O[C@@H](Oc3c(-c4ccc(O)c(O)c4)oc4cc(O)cc(O)c4c3=O)[C@H](O)[C@@H](O)[C@@H]2O)[C@H](O)[C@H](O)[C@H]1O					12.00
N=C(N)NCCC[C@H](NC(=O)[C@H](CCC(=O)O)NC(=O)[C@H](CCCCN)NC(=O)[C@H](CCCCN)NC(=O)[C@@H](N)CC(=O)O)C(=O)NCC(=O)O	2.1	2.47			
NCCCC[C@H](NC(=O)[C@H](CCC(N)=O)NC(=O)[C@H](CC(N)=O)NC(=O)[C@@H](N)CCCCN)C(=O)N[C@@H](CCC(N)=O)C(=O)N[C@@H](CO)C(=O)O	1.97	2.3			
CC(C)[C@H](NC(=O)[C@@H](N)CCCCN)C(=O)N[C@@H](CO)C(=O)N[C@@H](CCCNC(=N)N)C(=O)N[C@@H](CC(=O)O)C(=O)N[C@@H](CCC(N)=O)C(=O)O	1.9	2.22			
N=C(N)NCCC[C@H](N)C(=O)N[C@@H](CO)C(=O)N[C@@H](CCC(N)=O)C(=O)N[C@@H](CO)C(=O)N[C@@H](CCC(N)=O)C(=O)O	2.6	3.05			
CSCC[C@H](NC(=O)[C@H](CC(C)C)NC(=O)[C@@H]1CCCN1)C(=O)N[C@@H](CC(C)C)C(=O)N[C@@H](CC(C)C)C(=O)N[C@@H](C)C(=O)O	2.45	2.94			
NC(=O)CC[C@H](NC(=O)[C@H](CO)NC(=O)[C@@H](N)CCC(N)=O)C(=O)N[C@@H](CO)C(=O)O	3.57	4.25		0.43	
CC(C)[C@H](N)C(=O)N[C@@H](CC(N)=O)C(=O)N[C@@H](CCCNC(=N)N)C(=O)N[C@@H](Cc1ccccc1)C(=O)N[C@@H](CCCNC(=N)N)C(=O)O	2.33	2.69			
O=c1cc(-c2ccc(O)cc2)oc2cc(O)cc(O)c12					3.12
CC(C)C[C@H](N)C(=O)N[C@@H](CCC(N)=O)C(=O)N[C@@H](Cc1c[nH]cn1)C(=O)N[C@@H](CC(N)=O)C(=O)N[C@@H](C)C(=O)O	2.63	3.1		0.16	
N=C(N)NCCC[C@H](NC(=O)[C@H](CCC(=O)O)NC(=O)[C@H](CC(=O)O)NC(=O)[C@H](CCC(N)=O)NC(=O)[C@@H]1CCCN1)C(=O)O	2.39	2.78		0.08	

From publication PMC9635817 (Frontiers in Nutrition, 2022)
